Drawing on BindingDB's records for 1323679, this text covers Ki for five compounds.

Sequences of proteins named here, by UniProt entry; tags and fusion partners are left off.
UniProt P41143, whole entry, looked up: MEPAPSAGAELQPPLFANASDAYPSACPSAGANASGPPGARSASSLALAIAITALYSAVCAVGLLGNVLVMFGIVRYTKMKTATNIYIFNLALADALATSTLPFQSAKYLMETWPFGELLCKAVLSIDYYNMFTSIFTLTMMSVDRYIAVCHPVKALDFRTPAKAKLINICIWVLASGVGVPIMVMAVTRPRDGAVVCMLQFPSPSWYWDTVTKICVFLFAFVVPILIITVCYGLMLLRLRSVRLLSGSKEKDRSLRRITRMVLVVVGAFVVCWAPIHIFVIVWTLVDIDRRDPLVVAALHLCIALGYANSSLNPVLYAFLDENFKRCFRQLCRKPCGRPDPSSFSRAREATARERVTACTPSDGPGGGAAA

The experiment has as its target Delta-type opioid receptor (Homo sapiens, UniProt P41143). The experiment in a line: ChEBML_146441.

As for `CC1(C)CN(C(=O)Cc2ccc(Cl)c(Cl)c2)C(CN2CCCC2)c2ccccc21` (stereo not given), the Ki was 1010 nM.
The figure for `C[C@@H]1Cc2ccccc2C(CN2CCCC2)N1C(=O)Cc1ccc(Cl)c(Cl)c1` (stereo not given in full) is 44 nM; for `C[C@@H]1CN(C(=O)Cc2ccc(Cl)c(Cl)c2)C(CN2CCCC2)c2ccccc21` (stereo not given in full) it is 158 nM.
The figure for `CN(C(=O)Cc1ccc(Cl)c(Cl)c1)[C@@H]1CCCC[C@H]1N1CCCC1` is over 10000 nM; for `O=C(Cc1ccc(Cl)c(Cl)c1)N1CCc2c(O)cccc2C1CN1CCCC1` (stereo not given) it is 7.1 nM.

Broadly, the Ki is the dissociation constant of the complex between target and ligand, obtained from inhibition or displacement.
